Experimental findings from patent US6436959B1 (priority 1998, dated 2002) are described below.

This test has as its target opioid delta receptor (Homo sapiens, UniProt P41143). In words: High Throughput Screening Assay for Delta-Opioid Receptor Binding. To be noted: percent inhibition of control binding of [3H]bremazocine (2.4 nM) at 25 μM test compound; cloned human receptor, CHO cell membranes.

With `CCCN1CCC(N(c2ccc(C(=O)N(CC)CC)cc2)c2cccc(OC)c2)CC1.O=C(O)/C=C/C(=O)O`, the “% I @ 25 μM” value worked out at 97%.
In the case of `CCCN1CCC(N(c2ccccc2)c2ccc(C(=O)N(CC)CC)cc2)CC1.O=C(O)/C=C/C(=O)O` it was 94%; in that of `CCCN1CCC(N(c2ccc(C(=O)N(CC)CC)cc2)c2cccc(OC(C)=O)c2)CC1.Cl`, 100%.
